Measured values from US5194611A, “Separation technique for a mixture of (6RS)-diastereoisomers of an ammonium salt of N^5 -methyl-5,6,7,8-tetrahydrofolic acid into single (6R) and (6S)-diastereoisomers” (Sapec S.A. fine chemicals, priority 1990, dated 1993).
Structures can show the parent of a compound that is named as a salt.

Assay: in vivo
Conditions: mouse, iv

In order of falling LD50:
1. CN1c2c(nc(N)[nH]c2=O)NC[C@@H]1CNc1ccc(C(=O)N[C@@H](CCC(=O)O)C(=O)O)cc1 [(6S)-N^5 -Methyl-THF.Ca^2+, (6S)-N^5 -methyl-THF-calcium salt]  847 mg/kg
2. CN1c2c(nc(N)[nH]c2=O)NC[C@H]1CNc1ccc(C(=O)N[C@@H](CCC(=O)O)C(=O)O)cc1 [(6R)-N^5 -Methyl-THF.Ca^2+, (6R)-N^5 -methyl-THF-calcium salt]  460 mg/kg
3. CN1c2c(nc(N)[nH]c2=O)NCC1CNc1ccc(C(=O)N[C@@H](CCC(=O)O)C(=O)O)cc1 (stereo partly drawn) [(6RS)-N^5 -Methyl-THF.Ca^2+, (6RS)-N^5 -methyl-THF-calcium salt, reference compound]  339 mg/kg
